Measured values published in patent US6307090A.

Protein sequences, listed by entry. Tags and fused reporters are not part of them. Residues count along the entry.
UniProt P62993, whole entry: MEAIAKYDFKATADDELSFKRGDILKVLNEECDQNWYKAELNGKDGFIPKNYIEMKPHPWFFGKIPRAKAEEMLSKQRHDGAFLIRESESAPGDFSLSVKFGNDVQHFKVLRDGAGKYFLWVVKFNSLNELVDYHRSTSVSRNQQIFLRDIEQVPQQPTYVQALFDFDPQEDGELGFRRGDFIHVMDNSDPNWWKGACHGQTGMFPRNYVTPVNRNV
UniProt P62993, 60-152 limits assumed: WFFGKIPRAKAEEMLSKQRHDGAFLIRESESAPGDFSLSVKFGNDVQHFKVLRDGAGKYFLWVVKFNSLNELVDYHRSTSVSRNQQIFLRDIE

What was measured:
[1] = target: interaction of native Grb2 with p185^erbB-2 in MDA-MB-453 cell lysates (Homo sapiens, UniProt P62993); assay: Inhibition of Grb2 SH2 domain binding in cell extracts (Grb2 immunoprecipitation, anti-phosphotyrosine western blot); conditions: 30 minutes incubation, FIG. 4
Source text: (§1) Data in FIGS. 1 and 2 reflect inhibition measured in isolater] Grb2 SH2 domain protein relative to a reference phopsho-Shc(Y317) peptide. In physiological contexts however, Grb2 SH2 domains exist as part of larger Grb2 proteins which bind to pTyr-containing ligands are themselves protein in nature. In order to examine the ability of synthetic analogues to inhibit the interaction of native Grb2 with p185^erbB-2 two assays were used, one in which they were introduced directly into cell lysates and one of which required the compounds to cross membranes of intact cells. In both cases, MDA-MB-453 cells were utilized. These cells are derived from a human breast cancer where there is amplification of erbB-2 gene and resultant overexpression of mRNA and protein. […] Consistent with plasmon reasonace binding data (FIGS. 1 and 2) the level of inhibition is somewhat higher for 18c as compared to 20f.
Inhibition of Grb2 SH2 domain binding in cell extracts. […] Grb2 and associated Grb2-binding proteins were immunoprecipitated from each lysate (5 mg) with anti-Grb2 antibodies and collected using protein A sepharose using methods previously described.^67 Immunoprecipitated proteins were separated by SDS PAGE on 8-16% gradient gels (Novagen). pTyr containing proteins were detected by Western blotting using anti-phosphotyrosine antibodies (Upstate Biochemicals Inc.). […]

Grb2 SH2 domain = Grb2 SH2 domain (Homo sapiens, UniProt P62993); assay: Grb2 SH2 domain binding by surface plasmon resonance (solution IC50, competition with immobilized SHC phosphopeptide); conditions: for Grb2 SH2 domain binding affinity (in words): surface plasmon resonance, FIGS. 1 and 2
Procedure: In order to examine pTyr mimetics in the context of Grb2 SH2 inhibitors, the recently disclosed high affinity pTyr-containing tripeptide 18b^53 was chosen as a model platform on which to append phosphotyrosyl-mimeticking analogues. A series of new inhibitors 18c-f and 20d and 20f incorporating pTyr mimetics 15c-f was prepared and Grb2 SH2 domain binding affinities were determined by surface plasmon reasonance (FIGS. 1 and 2).^72,73 The linear Shc(Y317) peptide D-D-P-S-pY-V-N-V-Q(24) was employed as a reference, and gave an IC50 of 1.3 μM in this system. […] The importance of the "phosphate pharmacophore" to the overall binding of 18b was confirmed by the loss of all measureable binding affinity upon removal of the phosphate group (compound 18a).
SH2 domain using Surface Plasmon Resonance (SPR). The methods used were designed to measure a solution IC50 for peptide inhibition of the Grb2 SH2 domain. The approach minimizes the "left shift" encountered in SPR experiments that is observed when binding equilibrium constants are determined from association and dissociation rates at the SPR surface. In this study the SPR serves simply as a detector of free Grb2 in solution. The IC50 values are determined by mixing peptide with recombinant Grb2 or Grb2 SH2 domains and then measuring the amount of binding at equilibrium to the immobilized SHC phosphopeptide. The methods were essentially as previously described for the quantitative comparison of binding constants for the binding of other SH2 domains with phosphopeptides in solution.^72 In our experiments the immobilized phase was generated using SHC phosphopeptide, biotin-DDPSpYVNVQ (Quality Controlled Biochemicals, QCB), >90% purity by C18 HPLC and of the appropriate molecular weight (1453) by mass spectrometry. This peptide was attached to SA5 chips at 2 nM. […]

[2] = target: intracellular Grb2 interaction with p185^erbB-2 in MDA-MB-453 cells (Homo sapiens, UniProt P62993); assay: Inhibition of Grb2 SH2 domain binding in whole cells (MDA-MB-453); conditions: intact MDA-MB-453 cells, 3 hours in serum free media, up to 50 μM, FIG. 5
Source text: as §1
Compounds were also examined in a whole cell assay in which inhibition of intracellular Grb2 binding was measured following application of compounds to the media of MDA-MB-453 cells. […]
Inhibition of Grb2 SH2 domain binding in whole cells. […] To determine the amount of phosphotyrosine bound p185^erbB-2cells were then treated as described described above; cells were lysed Grb2 was immunoprecipitated and phosphotyrosine containing proteins were detected using immunoblotting and anti-phosphotyrosine antibody.

| reduction of p185^erbB-2 bound to Grb2 in cell lysates [1] | Grb2 SH2 domain binding affinity (in words) (Grb2 SH2 domain) | enhancement in binding affinity by Nα-oxalyl group (20f relative to 18f) (Grb2 SH2 domain; surface plasmon resonance IC50 ratio) | Structure (SMILES) | inhibition of intracellular Grb2 interaction with p185^erbB-2 [2] |
| --- | --- | --- | --- | --- |
| measurable loss of potency | low micromolar affinity |  | CC(=O)N[C@@H](Cc1ccc(OCC(=O)O)c(C(=O)O)c1)C(=O)NC1(C(=O)N[C@@H](CC(N)=O)C(=O)NCCCc2cccc3ccccc23)CCCCC1 |  |
| clear dose-dependent reduction | low micromolar affinity | five-fold enhancement in affinity | NC(=O)C[C@H](NC(=O)C1(NC(=O)[C@H](Cc2ccc(OCC(=O)O)c(C(=O)O)c2)NC(=O)C(=O)O)CCCCC1)C(=O)NCCCc1cccc2ccccc12 | able to inhibit Grb2 interaction with p185^erbB-2 |
